Amino acid sequences for entries named in this document (tags omitted). A change or cut given only in a name is not applied to a line headed by its entry.
UniProt P05181: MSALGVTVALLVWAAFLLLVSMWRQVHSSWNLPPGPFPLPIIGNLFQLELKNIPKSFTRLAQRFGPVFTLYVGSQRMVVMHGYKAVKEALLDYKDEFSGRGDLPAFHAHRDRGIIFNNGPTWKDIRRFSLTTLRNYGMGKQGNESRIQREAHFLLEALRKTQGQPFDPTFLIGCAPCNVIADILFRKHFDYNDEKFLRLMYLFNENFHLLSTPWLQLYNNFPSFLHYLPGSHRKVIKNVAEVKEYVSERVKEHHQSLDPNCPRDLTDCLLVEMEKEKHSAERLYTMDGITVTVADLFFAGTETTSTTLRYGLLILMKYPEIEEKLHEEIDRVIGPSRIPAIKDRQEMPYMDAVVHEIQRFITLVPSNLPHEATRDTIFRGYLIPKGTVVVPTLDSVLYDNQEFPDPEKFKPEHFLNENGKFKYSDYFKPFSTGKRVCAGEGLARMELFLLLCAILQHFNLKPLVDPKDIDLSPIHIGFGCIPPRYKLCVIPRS

In patent publication US8969312B2, “Low side effect pharmaceutical composition containing antituberculosis drugs” (priority 2011, dated 2015):

Target: human liver microsomal cytochrome P450 2E1 (CYP2E1) (Homo sapiens, UniProt P05181)
Assay: Human liver microsomal CYP2E1, chlorzoxazone 6-hydroxylation;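 note: chlorzoxazone added as substrate, 6-hydroxychlorzoxazone formation quantified by LC/MS/MS after 30 min at 37 °C with NADP+ regenerating system, compared against solvent control without test sample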
Settings: for Minimum Effective Dose: Table 7

| Molecule | Minimum Effective Dose [mg] | Inhibition of CYP 2E1 (0.042% (w/v)) [%] | Inhibition of CYP 2E1 (0.08% (w/v)) [%] | Inhibition of CYP 2E1 (0.167% (w/v)) [%] |
| --- | --- | --- | --- | --- |
| CCCCCCCCCCCCCCCCCC(=O)OCC(O)CO (stereo not shown) [Glycerrin monostearate] | 158 | – | – | – |
| Magnesium stearate | 29 | – | – | – |
| Span 60 | 1260 | 12.4 ± 2.3 | 13.9 ± 0.7 | 17.4 ± 0.9 |
| Span 80 | 1260 | 5.9 ± 0.3 | 6.2 ± 0.4 | 10.1 ± 2.1 |
